By UniProt entry, the sequences of proteins in these tests, tags left out. Residues count along the entry.
UniProt P07711, 114-288 limits assumed: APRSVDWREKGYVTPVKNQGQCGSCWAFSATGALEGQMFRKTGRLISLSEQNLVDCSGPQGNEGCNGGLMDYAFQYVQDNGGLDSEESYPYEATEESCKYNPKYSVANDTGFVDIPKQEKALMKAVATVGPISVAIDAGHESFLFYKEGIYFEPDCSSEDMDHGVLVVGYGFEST
UniProt P07711, 292-333 limits assumed: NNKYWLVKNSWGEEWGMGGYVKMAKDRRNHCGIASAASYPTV

According to publication PMC6636858 (European journal of medicinal chemistry, 2019):

Key:
[1] = target: Cathepsin B (CatB, human liver) (Homo sapiens, UniProt P07858); assay: CatB inhibition constants / Km, fluorogenic substrate Z-Arg-Arg-AMC; type: biochemical; conditions: 37 °C
[2] = target: Cathepsin L (Cat L, human liver) (Homo sapiens, UniProt P07711); assay: CatL inhibition constants / Km, fluorogenic substrate Z-Phe-Arg-AMC; type: biochemical; conditions: 37 °C

3-(((S)-1-(((S)-1-((2-azidoethyl)amino)-5-guanidino-1-oxopentan-2-yl)amino)-4-methyl-1-oxopentan-2-yl)carbamoyl)oxirane-2-carboxylic acid [1a]
Ki [1]: 64 ± 4 nM | Ki [2]: 47 ± 6 nM
